Laboratory results published in ChEMBL document CHEMBL1155340, “Discovery of a novel azepine series of potent and selective 5-HT2C agonists as potential treatments for urinary incontinence” (Bioorg Med Chem Lett, 2009).

Protein sequences, listed by entry. Tags and fused reporters are not part of them. Lines headed by an entry give the natural chain unless they say otherwise; changes in a name come on top.
UniProt P28335: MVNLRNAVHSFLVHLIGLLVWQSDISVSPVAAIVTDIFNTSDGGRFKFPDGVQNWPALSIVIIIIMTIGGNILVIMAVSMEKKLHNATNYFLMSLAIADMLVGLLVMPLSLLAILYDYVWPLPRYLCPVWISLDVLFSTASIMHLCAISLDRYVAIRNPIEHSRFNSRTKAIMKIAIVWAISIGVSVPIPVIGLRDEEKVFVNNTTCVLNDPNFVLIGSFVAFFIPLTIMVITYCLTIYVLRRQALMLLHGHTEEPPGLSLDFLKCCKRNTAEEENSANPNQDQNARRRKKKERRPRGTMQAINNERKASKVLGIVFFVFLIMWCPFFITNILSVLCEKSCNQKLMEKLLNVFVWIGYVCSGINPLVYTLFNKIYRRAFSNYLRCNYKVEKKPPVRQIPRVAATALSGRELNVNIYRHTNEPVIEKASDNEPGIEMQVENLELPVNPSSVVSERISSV
UniProt P41595, whole entry: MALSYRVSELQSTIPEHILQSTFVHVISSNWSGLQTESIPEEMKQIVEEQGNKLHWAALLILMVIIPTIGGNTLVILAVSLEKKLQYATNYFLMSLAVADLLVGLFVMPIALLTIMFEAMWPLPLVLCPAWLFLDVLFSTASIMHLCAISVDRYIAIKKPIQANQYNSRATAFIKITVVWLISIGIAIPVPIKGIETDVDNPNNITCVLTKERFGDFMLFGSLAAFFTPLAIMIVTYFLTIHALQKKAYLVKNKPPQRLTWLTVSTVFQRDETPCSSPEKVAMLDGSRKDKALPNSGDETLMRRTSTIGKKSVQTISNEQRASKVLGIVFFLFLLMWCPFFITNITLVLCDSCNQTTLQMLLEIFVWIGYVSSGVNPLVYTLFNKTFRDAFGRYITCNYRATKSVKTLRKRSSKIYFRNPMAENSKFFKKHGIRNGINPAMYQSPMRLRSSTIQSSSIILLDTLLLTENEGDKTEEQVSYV

Tests used:
[1] = biological target: 5-hydroxytryptamine receptor 2C (Homo sapiens, UniProt P28335)
[2] = biological target: 5-hydroxytryptamine receptor 2B (Homo sapiens, UniProt P41595)

## Clc1cccc(N2CCNCC2)c1 [CHLOROPHENYLPIPERAZINE]
[1]
  EC50: 0.17 µM
[2]
  EC50: 0.125 µM
